Reference: PubChem BioAssay AID2825 (Sanford-Burnham Center for Chemical Genomics, 2010)
The entries are a selection whose mix differs from that of the whole data set. Some results for these compounds are left out of this collection, so the calls shown say nothing about other tests. Active and inactive are the calls of the source.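 How the source made its calls: active means inhibition of 50% or more; inactive means inhibition below 50%.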

assay: NALP3 inflammasome inhibitors in reconstituted yeast, primary screen, luminescence, uHTS (AID 2825); conditions: Yeast reconstituted NLRP3/ASC/caspase-1, beta-gal luminescence, 24 h; at 10 µM; hits give high values;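 further: plate controls were induced DMSO wells for no effect and uninduced yeast grown without galactose for full effect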

Row | Compound | inhibition
1 | O=C(OC1CN2CCC1CC2)C(CO)(c1ccccc1)c1ccccc1 (centres undefined) | inactive: 2.34%
2 | CN(C)c1cccc(C(=O)NCC2(N(C)C)CCCCC2)c1 | inactive: 2.68%
3 | CC(C)Oc1ccc(C(=O)NCC2(N(C)C)CCCCC2)cc1 | inactive: 9.97%
4 | COc1ccc(Br)c(C(=O)NCC2(N3CCCCC3)CCCCC2)c1 | inactive: 7.59%
5 | COc1cc(C(=O)NCC2(N(C)C)CCCCC2)c([N+](=O)[O-])cc1OC | inactive: 0.767%
6 | CN(C)C1(CNC(=O)c2ccc(Br)cc2)CCCCC1 | inactive: 11.4%
7 | O=C(NCC1(N2CCCCC2)CCCCC1)c1cccc(Cl)c1 | inactive: 19%
8 | COc1cccc(C(=O)NCC2(N3CCCCC3)CCCCC2)c1 | inactive: -4.17%
9 | COc1ccc(Cl)cc1C(=O)NCC1(N(C)C)CCCCC1 | inactive: 5.25%
10 | Cc1ccccc1C(=O)NCC1(N2CCCCC2)CCCCC1 | inactive: 15.8%
11 | CN(C)C1CCCC1OC(=O)C(O)(c1ccccc1)c1ccccc1 (centres undefined) | inactive: -9.23%
12 | CN(C)c1ccc(C(=O)NCC2(N(C)C)CCCCC2)cc1 | inactive: 2.82%
13 | Cc1cc(C(=O)NCC2(N3CCCCC3)CCCCC2)ccc1[N+](=O)[O-] | inactive: 24.3%
14 | CCN1CCCC(OC(=O)C2(O)c3ccccc3C=Cc3ccccc32)C1 (centres undefined) | inactive: 11.2%
15 | O=C(NCC1(N2CCCCC2)CCCCC1)c1cccc(Br)c1 | inactive: 2.54%
16 | COc1ccc(C(=O)NCC2(N(C)C)CCCCC2)cc1 | inactive: 6.27%
17 | C=CCN1CCN(CCOC(=O)C(O)(c2ccccc2)c2ccccc2)CC1 | inactive: -2.02%
18 | O=C(NCC1(N2CCCCC2)CCCCC1)c1cc(F)c(F)cc1Cl | inactive: 15.1%
19 | CN1[C@@H]2CC[C@H]1CC(OC(=O)C(O)(c1ccccc1)c1ccccc1)C2 (some centres undefined) | inactive: 18.5%
20 | O=C(NCC1(N2CCCCC2)CCCCC1)c1cc([N+](=O)[O-])ccc1Cl | inactive: -5.32%
21 | Cc1ccc(C(=O)NCC2(N3CCCCC3)CCCCC2)cc1 | inactive: 0.601%
22 | CC(C)N1C(=O)CC2(CCN(CCOC(=O)C(O)(c3ccccc3)c3ccccc3)CC2)C1=O | inactive: 18.3%
23 | CCN(CC)CC(C)C(C)OC(=O)C(O)(c1ccccc1)c1ccccc1 (centres undefined) | inactive: 9.21%
24 | COc1cc(SC)ccc1C(=O)NCC1(N(C)C)CCCCC1 | inactive: 3.51%
